This is an account of results in US20230270867A1, “CONJUGATE IN WHICH FL118 DRUG IS LINKED TO ACID-SENSITIVE LINKER, AND IMMUNOCONJUGATE USING SAME” (PINOTBIO, INC., priority 2020, published 2023).

One data set deals with JIMT-1 tumor cells. Description: In vivo drug efficacy, JIMT-1 xenograft model (trastuzumab / Example 5). Set-up: species or system mice. The conditions noted are these: JIMT-1 model, 10 mg/kg I.V. The protocol: (§1) All procedures related to animal handling, care, and treatment in this study were carried out in accordance with the guidelines approved by the Institutional Animal Care and Use Committee (IACUC) of Shanghai Model Organisms Center, Inc. according to the guidelines of the Association for Assessment and Accreditation of Laboratory Animal Care (AAALAC). Thirty 9 to 11 weeks old female mice weighing 16 to 18 g were accommodated in cages (300 mm×180 mm×150 mm), 3 to 5 mice in each cage, and cared at constant temperature (18 to 26° C.) and humidity (40 to 70%). The mice were provided with free access to radiation-sterilized dry granular feed and sterile drinking water in individual ventilated cages.
(§2) The JIMT-1 breast cancer cells were cultured under 5% CO2 and 37° C. conditions with DMEM containing 10% FBS, 100 U/mL penicillin, and 100 μg/mL streptomycin, and a subculture was performed by a routine method twice per week by trypsin-EDTA treatment. Cells growing in the exponential growth phase were harvested and counted for tumor inoculation. The MDA-MB-468 breast cancer cells were cultured under 5% CO2 and 37° C. conditions with RPMI containing 10% FBS, 100 U/mL penicillin, and 100 μg/mL streptomycin, and a subculture was performed by a routine method twice per week by trypsin-EDTA treatment. Cells growing in the exponential growth phase were harvested and counted for tumor inoculation.
(§3) JIMT-1 tumor cells (1×10^7) or MDA-MB-468 cells (1×10^7) in 0.2 mL DPBS with Matrigel were inoculated subcutaneously into the right anterior flank of each mouse. The animals were randomly grouped (Tables 5-7) when the mean tumor volume reached about 215 mm^3, and then treatment for the drug efficacy study was initiated.
(§4) The main endpoint was determined as the time point when it could be confirmed if tumor growth could de delayed or if the mouse could be treated. The two-dimensional size of the tumor was measured twice a week by using a caliper, and the volume was recorded in the unit of mm^3 by using the formula (V=0.5a×b^2, where a and b are the major and minor diameters of the tumor, respectively).
(§5) The tumor growth inhibition (TGI) was calculated for each group.
(§6) TGI (%)=[1−(Ti/T0)/(Vi/V0)]×100
(§7) (Ti is the mean tumor volume of the treatment group on a given day; T0 is the mean tumor volume of the treatment group on the first treatment day; Vi is the mean tumor volume of the vehicle control group on the same day as Ti; and V0 is the mean tumor volume of the vehicle control group on first treatment day.)
(§8) Animals with a weight loss of 15% or greater or a tumor volume equal to or greater than 3000 mm^3 were euthanized at a humane endpoint.
(§9) The results are expressed as mean and standard error (mean±SEM). The data was analyzed by performing a two-way RM ANOVA Dunnett's multiple comparison test by using the Graphpad Prism 6.0 software program, and p<0.05 was considered statistically significant.

Data set [1] can be described thus: Body weight of JIMT-1 or MDA-MB-468 tumor model mice. It is filed as in vivo. Conditions: 10 mg/kg I.V.; for Change of body weight: Day 0 to Day 21. The method, then: During routine monitoring, the animals were checked daily for normal behavior such as mobility, food and water consumption (observation only), weight change (weighed twice a week), eye/hair matting, tumor growth, and treatment effects. Mortality and observed clinical signs were recorded based on the number of animals in each subset.
The body weight of the mice of the JIMT-1 or MDA-MB-468 tumor model was regularly monitored.

For a further data set, the system named is MDA-MB-468 cells. The data set can be described thus: In vivo drug efficacy, MDA-MB-468 xenograft model (cetuximab / Example 8). Conditions: MDA-MB-468 model, 10 mg/kg I.V. Set-up: species or system mice. The protocol:
as §1, §2, §3, §4, §5, §6, §7, §8, §9

Turning to “Trastuzumab: Her2 target monoclonal antibody; control”, the Tumor volume amounted to 216.90 ± 5.63 mm^3 in the data set on JIMT-1 tumor cells (Day 0); 394.05 ± 24.62 mm^3 in the data set on JIMT-1 tumor cells (Day 4); 628.63 ± 91.39 mm^3 with JIMT-1 tumor cells (Day 7); 828.63 ± 152.73 mm^3 in the data set with JIMT-1 tumor cells (Day 11); 857.34 ± 174.86 mm^3 in the data set with JIMT-1 tumor cells (Day 14); 775.02 ± 141.84 mm^3 in the data set on JIMT-1 tumor cells (Day 18). The same substance had a Tumor volume with JIMT-1 tumor cells (Day 21, 10 mg/kg) of 671.06±92.85 mm^3. In the data set with JIMT-1 tumor cells (Day 21), the inhibition of tumour growth (TGI) was 59.41%. Also, the Body weight in data set [1] (JIMT-1 model, Day 0) turned out to be 17.49 ± 0.67 g; in data set [1] (JIMT-1 model, Day 21) it was 19.05 ± 0.84 g. For the same substance, the “Change of body weight” value in data set [1] (JIMT-1 model) was “+1.56 g”.

In the case of “Cetuximab: EGFR target monoclonal antibody; control”, the Tumor volume in the data set on MDA-MB-468 cells (Day 0) was found to be 215.45 ± 17.45 mm^3; in the data set on MDA-MB-468 cells (Day 4) it was 237.94 ± 11.05 mm^3; in the data set on MDA-MB-468 cells (Day 7), 293.12 ± 23.39 mm^3; in the data set on MDA-MB-468 cells (Day 11), 318.07 ± 23.97 mm^3; with MDA-MB-468 cells (Day 14), 327.41 ± 30.50 mm^3; with MDA-MB-468 cells (Day 18), 340.95 ± 34.19 mm^3. In addition, the Tumor volume is 363.07 ± 44.38 mm^3 in the data set with MDA-MB-468 cells (Day 21, 10 mg/kg) and 363.07±44.38 mm^3 in the data set with MDA-MB-468 cells (Day 21, listed as cetuximab, 10 mg/kg). Besides, the TGI with MDA-MB-468 cells (Day 21) was determined as 15.92%. In addition, the Body weight was determined as 16.52 ± 0.35 g in data set [1] (MDA-MB-468 model, Day 0) and 17.42 ± 0.61 g in data set [1] (MDA-MB-468 model, Day 21). The “Change of body weight” value in data set [1] (MDA-MB-468 model) is listed as “+0.9 g”.

As a reminder, the TGI is the reduction of tumour growth relative to the control group.
